Earlier results as cited in patent publication US11324732B2, “Methods for the treatment of dyskinesia in cerebral palsy” (AUSPEX PHARMACEUTICALS, INC., priority 2018, dated 2022).

Chains of the proteins cited; added tags and fusions are not shown.
UniProt Q05940, whole entry, species assumed: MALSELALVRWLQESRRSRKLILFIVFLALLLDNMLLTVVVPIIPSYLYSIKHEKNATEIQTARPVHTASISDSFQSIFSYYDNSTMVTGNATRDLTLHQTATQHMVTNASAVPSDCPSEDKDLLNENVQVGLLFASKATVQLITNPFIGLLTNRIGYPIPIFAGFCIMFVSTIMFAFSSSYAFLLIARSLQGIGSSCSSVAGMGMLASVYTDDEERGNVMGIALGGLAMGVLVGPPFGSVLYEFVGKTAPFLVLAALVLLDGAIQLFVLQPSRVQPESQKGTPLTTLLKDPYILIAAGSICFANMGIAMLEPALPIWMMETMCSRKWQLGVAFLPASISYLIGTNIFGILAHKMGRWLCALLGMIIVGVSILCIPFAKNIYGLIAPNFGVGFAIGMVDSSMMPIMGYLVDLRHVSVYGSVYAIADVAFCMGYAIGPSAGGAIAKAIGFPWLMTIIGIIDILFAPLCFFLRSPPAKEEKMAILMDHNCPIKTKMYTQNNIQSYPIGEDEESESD

Target: VMAT2 (Homo sapiens, UniProt Q05940)
Conditions: active metabolites formed from deutetrabenazine; read-out: inhibition constant, VMAT2 binding; cited from earlier work

| Substance | Ki [nM] |
| --- | --- |
| beta-dihydrotetrabenazine [β-HTBZ] | 22 |
| alpha-dihydrotetrabenazine [α-HTBZ] | 3.8 |
